ChEMBL document CHEMBL4251579, “Design, synthesis, and biological evaluation of a series of resorcinol-based N-benzyl benzamide derivatives as potent Hsp90 inhibitors” (Eur J Med Chem, 2018)

Target: Heat shock protein HSP 90-alpha (Homo sapiens, UniProt P07900)
Assay: Inhibition of FITC-geldanamycin binding to N-terminal domain of recombinant full-length HSP90alpha (unknown origin) after 16 hrs by fluorescence polarization assay

Compound `O=C(NCc1ccccc1)c1cc(Cl)c(O)cc1O` has an IC50 of over 1000 nM.
